# Data: PubChem BioAssay (NCI)
# Only a part is listed here, and it is no random draw.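 Growth was measured after 48 h exposure to one concentration of compound in 96-well plates. Values under 10 count as active.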 Activity calls are given as the source filed them.
# System: MDA-MB-468 breast
# Assay: NCI-60 one-dose screen, 48 h (100 = growth as untreated, 0 = no growth, -100 = all killed)
# Conditions: 10 µM
smiles,measurement,value
CN(CCCl)CCCl,growth,active: -23.5%
